Test results: article PMC9949698, “Visible-Light-Controlled Histone Deacetylase Inhibitors for Targeted Cancer Therapy” (Journal of Medicinal Chemistry, 2023)

System: HeLa cells
Test: HeLa cell viability, MTS assay, dark or preillumination
Assay type: cell-based
Details: positive control
Excerpt: Given the promise of HDAC inhibitors to induce apoptosis to cancer cells, we proceeded to study the effects of the best analogues in HeLa cells. We first confirmed that representative compounds were able to inhibit HDACs in cells in a whole-cell HDAC assay, which accounts for activity against class 1 and 2b HDAC isoforms (Figure S22). We then proceeded to evaluate the effect of the compounds in a viability assay against HeLa cells. The compounds were either kept in the dark or illuminated before addition onto preseeded cells and then incubated for 24–48 h before the proportion of live cells was measured with an MTS assay.
HeLa, MCF7, and HT29 cells were maintained in adherent cultures in DMEM supplemented with 10% FBS. KG1 cells were maintained in a suspension culture in IMDM supplemented with 20% FBS.
Stock solutions of the compounds were heated to 60 or 80 °C to obtain solutions with the maximum amount of the trans isomer (dark). […]
Viability of HeLa, MCF7, and […] cells was determined with a CellTiter 96 assay (Promega), according to the manufacturer’s instructions. Briefly, 20 μL of CellTiter 96 reagent was added to each well, the plates were incubated at 37 °C for 2 h, and the absorbance at 490 nm was recorded. Viability is expressed as a percentage with respect to the nontreated cells.

Question: Which “effect on cells after treatment for 24 h” value does the source give for `O=C(CCCCCCC(=O)Nc1ccccc1)NO` [SAHA, reference compound] here?
Answer: induced cell death
